The assay deals with recombinant human DAAO (Homo sapiens, UniProt P14920). Description: Inhibition of recombinant human DAAO. In kind it is biochemical.

Sequences of proteins named here, by UniProt entry; tags and fusion partners are left off. A change or cut given only in a name is not applied to a line headed by its entry.
UniProt P14920: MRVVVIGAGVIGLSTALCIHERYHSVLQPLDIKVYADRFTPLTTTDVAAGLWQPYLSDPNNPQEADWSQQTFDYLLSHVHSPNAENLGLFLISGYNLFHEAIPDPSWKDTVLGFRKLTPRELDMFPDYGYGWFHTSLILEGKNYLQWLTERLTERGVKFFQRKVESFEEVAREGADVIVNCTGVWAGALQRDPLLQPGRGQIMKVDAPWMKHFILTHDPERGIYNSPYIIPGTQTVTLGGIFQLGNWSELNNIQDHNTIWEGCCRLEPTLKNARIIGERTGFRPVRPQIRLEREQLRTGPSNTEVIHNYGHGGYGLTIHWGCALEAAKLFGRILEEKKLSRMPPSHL

As to `O=c1[nH]nc(SCc2ccc3c(c2)OCO3)nc1O` [Compound 6o], the IC50 was below 100 nM.

Take `O=c1[nH]nc(SCc2ccc3cc(F)ccc3c2)nc1O` [Compound 6m, 3-((6-fluoronaphthalen-2-yl)methylthio)-6-hydroxy-1,2,4-triazin-5(2H)-one]: the IC50 was below 100 nM.

For the origin of these results see paper PMC4816084 (Bioorganic & medicinal chemistry letters, 2016).
